Results: US20200016283A1, “COMBINATION THERAPY COMPRISING A RADIOPHARMACEUTICAL AND A DNA-REPAIR INHIBITOR” (Bayer AS, priority 2017, published 2020)

Assays:
Type in all cases: cell-based
Conditions in all cases: Her2-TTC + ATR inhibitor (BAY1895344), viability, 5-7 days
[1] = system: SK-OV-3 cancer cell line (Ovarian cancer); test: Combination cytotoxicity assay (CellTiter-Glo), SK-OV-3
[2] = system: KPL-4 cancer cell line (Breast cancer); test: Combination cytotoxicity assay (CellTiter-Glo), KPL-4
[3] = system: BT-474 cancer cell line (Breast cancer); test: Combination cytotoxicity assay (CellTiter-Glo), BT-474

Measured: Combination Effect

Her2-TTC: HER2-targeted thorium-227 conjugate, prepared according to Examples 5a and 5b of WO 2016/096843
Synergistic: all assays above
